Consider one compound from ChEMBL document CHEMBL5230100, “Novel quinazoline-based EGFR kinase inhibitors: A review focussing on SAR and molecular docking studies (2015-2019)” (Eur J Med Chem, 2020).

The subject of the test is DNA. As to the kind of experiment: Binding affinity to DNA (unknown origin) by UV-visible spectroscopic method. In kind it is nucleic-acid assay.

Molecules are shown by their SMILES.

As to `CCCN(c1ccc(F)c(Cl)c1)c1ncnc2cc(OC)c(OCCCN3CCOCC3)cc12`, the K was 7.1 10^5/M.
